Assay: logP determination by HPLC on a reversed-phase column (C 18), EEC Directive 79/831 Annex V.A8
Conditions: HPLC reversed-phase C18, 40° C., 0.1% aqueous formic acid and acetonitrile, gradient 10% to 90% acetonitrile
Method: Temperature: 40° C.; Mobile phases: 0.1% aqueous formic acid and acetonitrile; linear gradient from 10% acetonitrile to 90% acetonitrile.

Cc1nnnn1C(=NOCc1cccc(NC(=O)C2CC2)n1)C1CCCCC1 [Compound 31]
LogP: 3.33

— patent US8119646B2, “Fungicide hydroximoyl-tetrazole derivatives” (Bayer CropScience AG, priority 2006, dated 2012)
